From patent US9073929B2, “Aldosterone synthase inhibitors” (ElexoPharm GmbH, priority 2011, dated 2015)

The chains behind the UniProt entries cited, without tags or fusion partners. Residues count along the entry.
UniProt P15538, 25-503 limits assumed: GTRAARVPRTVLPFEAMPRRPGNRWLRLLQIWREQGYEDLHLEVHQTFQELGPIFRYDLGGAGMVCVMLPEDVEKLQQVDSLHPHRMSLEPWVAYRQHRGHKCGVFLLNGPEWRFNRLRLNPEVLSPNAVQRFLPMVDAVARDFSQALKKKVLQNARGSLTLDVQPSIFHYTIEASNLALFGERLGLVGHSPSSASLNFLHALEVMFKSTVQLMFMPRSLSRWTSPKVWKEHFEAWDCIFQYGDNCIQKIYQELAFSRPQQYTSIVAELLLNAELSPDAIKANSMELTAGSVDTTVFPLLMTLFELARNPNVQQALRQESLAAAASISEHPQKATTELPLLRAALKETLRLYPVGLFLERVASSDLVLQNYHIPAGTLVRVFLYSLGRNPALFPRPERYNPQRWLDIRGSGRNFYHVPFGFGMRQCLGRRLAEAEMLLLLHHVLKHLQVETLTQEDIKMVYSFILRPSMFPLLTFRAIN
UniProt P19099, 25-503 limits assumed: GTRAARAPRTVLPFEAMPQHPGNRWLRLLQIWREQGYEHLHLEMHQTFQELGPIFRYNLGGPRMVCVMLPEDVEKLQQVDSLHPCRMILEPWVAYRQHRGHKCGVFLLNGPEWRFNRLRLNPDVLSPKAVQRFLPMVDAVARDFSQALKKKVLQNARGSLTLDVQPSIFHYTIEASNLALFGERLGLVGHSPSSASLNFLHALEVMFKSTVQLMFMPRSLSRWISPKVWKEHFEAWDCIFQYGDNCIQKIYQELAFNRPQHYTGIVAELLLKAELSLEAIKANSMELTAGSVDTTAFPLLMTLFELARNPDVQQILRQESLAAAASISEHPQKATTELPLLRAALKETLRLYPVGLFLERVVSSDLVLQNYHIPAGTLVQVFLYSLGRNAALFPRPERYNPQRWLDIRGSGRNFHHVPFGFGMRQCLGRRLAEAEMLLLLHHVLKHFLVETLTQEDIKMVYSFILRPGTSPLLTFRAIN

What was measured:
[1] = molecular target: human CYP11B1 (Homo sapiens, UniProt P15538); experiment: V79-Human-CYP11B1 cell assay (cortisol HTRF); assay type: cell-based; details: read-out: V79 Human CYP11B1 IC50, V79-hCYP11B1 cells, 250 nM 11-deoxycortisol, 3 hours
Protocol: Methods for V79-Human-CYP11B2 and V79-Human-CYP11B1 Assays: V79 cell lines stably expressing the either the human CYP11B2 or the human CYP11B1 enzyme were generated using a standard transfection protocol. V79 cells were transfected with plasmids pTriEx3-Hygro-hCyp11B2 or pTriEx3-Hygro-hCyp11B1 using Lipofectamine2000 reagent. […] Single cell clones were generated by infinite dilution in DMEM supplemented with 10% FBS and 400 μg/mL hygromycin until single colonies were obtained. […] For testing of inhibitors, cells were harvested at 80% confluency with 0.5% Trypsan-EDTA, washed once in PBS, and reconstituted in DMEM+0.1% BSA media at a cell concentration of 400,000 cells/mL. 25 μl of cells were added to a 384 well tissue culture treated plate and mixed with 0.25 μl of inhibitor or DMSO (1% final DMSO concentration) for 1 hour at 37° C., 5% CO2. […] The reaction was carried out for 3 hours at 37° C., 5% CO2 and was stopped by harvesting the supernatants. […] IC50's for the inhibitor were determined by plotting the amount of product formed against the concentration of inhibitor using sigmoidal dose-response curve (variable slope) fit in GraphPad.

[2] = molecular target: human CYP11B2 (Homo sapiens, UniProt P19099); experiment: V79-Human-CYP11B2 cell assay (aldosterone HTRF); details: read-out: V79 Human CYP11B2 IC50, V79-hCYP11B2 cells, 125 nM 11-deoxycorticosterone, 3 hours

Question: `COC(C)(C)c1cncc(-c2ccc3c(c2)CCc2nncn2-3)c1` was tested. Which IC50 [1] did it give?
Answer: 108 nM

Question: And the IC50 [2]?
Answer: 5 nM
